## Ab-14 heavy chain CDR variants: yeast mating affinities

The target is the same throughout: PDVDLGDISGINAS, from the HR2 region of SARS-CoV-2 spike.

The variants keep the light chain, the linker and the frameworks of Ab-14 (scFv order VH, the linker GGGGSGGGGSGGGGS, VL).
VH: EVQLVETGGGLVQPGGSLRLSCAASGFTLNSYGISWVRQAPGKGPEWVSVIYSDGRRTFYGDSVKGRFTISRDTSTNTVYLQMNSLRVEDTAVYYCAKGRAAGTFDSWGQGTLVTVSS
VL: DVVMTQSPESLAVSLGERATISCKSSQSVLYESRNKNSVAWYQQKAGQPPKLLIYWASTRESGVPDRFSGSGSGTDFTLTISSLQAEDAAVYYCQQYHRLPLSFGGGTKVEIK

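The parent was found by panning a naive human phage display library on the peptide. AAYL49 was designed without a model: most single CDR substitutions and a random sample of double and triple ones. In AlphaSeq, yeast of one mating type display the scFv and yeast of the other type display the target. Pairs that bind mate more often; barcode pairs of the diploids are counted by sequencing. Each replicate has its own calibration line, from reference interactions of the BCL2 family. The assay was run in three technical replicates.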

The parent's heavy chain CDRs are GFTLNSYGIS, VIYSDGRRTFYGDSVK, GRAAGTFDS; each variant's own CDRs replace them letter for letter.
All variants listed here change Y52 of the VH, counted from its first residue.
Each Kd is an estimate from the mating assay, the geometric mean of the replicates in which the pair was seen; lower is stronger.
A pair that was not seen in any replicate is written "nd"; this usually means weak binding, but a binder can also be missed.
Nonspecific signal, from three strains lacking the peptide, appeared in 15% of pairings of library AAYL49, centred on 11 µM (5% of these signals below 680 nM); values are not corrected for it.
In this assay the parent's reference entry averaged 4.4 nM; its copy inside this library read 13 µM (one replicate of three).

* HFTLNSYGIS | VIMSDGRRTFYGDSVK | GRLAGTFDS = nd (0 of 3 replicates)
* GFTLNSYGIS | VIRSDGRRTFYGDSVK | GRAAKCFDS = 39 µM (1 of 3 replicates)
* GFTLNSYGIS | VIISDGWRTFYGDSVK | GRAAGTFDS = nd (0 of 3 replicates)
* GFTLNSYGIS | VIGSWGRRTFYGDSVK | GRAAGRFDS = nd (0 of 3 replicates)
* GFTLNSYGIS | VITSDGRRTFYGDSVK | GIAAGTFDS = 8.2 µM (3 of 3 replicates)
* GFTLNSYGIS | VINSDGRRTFYGDSVK | GRAAGTFDS = nd (0 of 3 replicates)
* GFTLNQYGIS | VIRSDGRRTFGGDSVK | GRAAGTFDS = nd (0 of 3 replicates)
* GFTLNSYGIS | VIPSDRRRTFCGDSVK | GRAAGTFDS = 13 µM (1 of 3 replicates)
* GFTLNSYGIS | VYVSDGWRTFYGDSVK | GRAAGTFDS = 1.0 µM (1 of 3 replicates)
* GFTLNSYGIS | VICSDGRTTFYGDSVK | GRAAGTFDS = 3.5 µM (1 of 3 replicates)
* GFTLNSYGIS | VIKSDGYRTFYGFSVK | GRAAGTFDS = nd (0 of 3 replicates)
* GFTLNSYGIN | VINSDGRRTFYHDSVK | GRAAGTFDS = nd (0 of 3 replicates)
* GFTLNSYGIS | VRSSDGRRTFYGTSVK | GRAAGTFDS = nd (0 of 3 replicates)
* GFTLNSYWIS | VIPVDGRRTFYGDSVK | GRAAGTFDS = 140 µM (1 of 3 replicates)
* GFELNSYGIS | VIHSDGRRTFYGDSVK | GRTAGTFDS = 11 nM (3 of 3 replicates)
* GFTVNSYGIS | VIVSDGRRTFYMDSVK | GRAAGTFDS = 490 µM (1 of 3 replicates)
* GMTLNSYGIS | VIQSDGTRTFYGDSVK | GRAAGTFDS = 11 µM (1 of 3 replicates)
* GFTLNSYGIS | VIDSDGRRVNYGDSVK | GRAAGTFDS = nd (0 of 3 replicates)
* GFTLNSYGIM | VICSDGRRTFYGDSVK | GRAAGTFDS = 60 µM (1 of 3 replicates)
* GFTLNSYGIS | VCGSMGRRTFYGDSVK | GRAAGTFDS = nd (0 of 3 replicates)
* GATLNSYGIS | VPDSDGRRTFYGDSVK | GRAAGTFDS = nd (0 of 3 replicates)
* TFTLNSYGIS | VIMEDGRRTFYGDSVK | GRAAGTFDS = nd (0 of 3 replicates)
* GFTLNSYGIS | VIHSDGRRTFYGDSVC | GRDAGTFDS = nd (0 of 3 replicates)
* GFTLNSDGIS | VALSDGRRTFYGDSVK | GRAAGTFDS = nd (0 of 3 replicates)
* GFTLNSYGIS | VIASDKRRTFYGDSVK | GRAAGTFQS = nd (0 of 3 replicates)
* GFTLNYYGIS | VINSDGRRTFYGDFVK | GRAAGTFDS = nd (0 of 3 replicates)
* GFTLNSYGNS | VIMSDGRRTFYGDSVK | GRAAGTFGS = nd (0 of 3 replicates)
* QFTLNSYGIS | VINSDGRRTFYGDSVK | GRAAGPFDS = nd (0 of 3 replicates)
* GFTLNSYGIS | VIRSDGRRTFYGDSVK | GPAAGTFDW = nd (0 of 3 replicates)
* GFTLNSYGIS | VIKSDGRRTFYGDSVK | GRAAGMVDS = nd (0 of 3 replicates)
* GFTLNSYGIS | VINSDGRRTFYKDSVK | GRAAGTFDS = 14 µM (2 of 3 replicates)
* GFTLNSYTIS | VIPSDGRRTFYGDSVL | GRAAGTFDS = nd (0 of 3 replicates)
* GFTLNSYGII | VIQSDGRRTFYGDSVK | GRANGTFDS = 3.0 µM (1 of 3 replicates)
* GFTLNSYGIS | VIDSDGWRTFYGDSVK | GRAAGCFDS = 7.0 µM (1 of 3 replicates)
* GFTLNSYGIS | VKKSDGRRTFYGDSVK | GRAAGTFDS = nd (0 of 3 replicates)
* GFTLNTYGIS | VINSDGRRTFYGDSVK | GRGAGTFDS = 720 nM (1 of 3 replicates)
* GFTLNSYGIS | VIASDGRRTFYGDSVK | GRAAGTFDS = nd (0 of 3 replicates)
* GFTLNSYGIS | VIIVDGRRTFYGDSVK | GRAAGTDDS = 6.0 µM (1 of 3 replicates)
* GFTCNSYGIA | VITSDGRRTFYGDSVK | GRAAGTFDS = nd (0 of 3 replicates)
* GITLNSYGIS | VIESDGRRTFFGDSVK | GRAAGTFDS = nd (0 of 3 replicates)
* GFHLNSYGIS | VIDSMGRRTFYGDSVK | GRAAGTFDS = nd (0 of 3 replicates)
* GRTLNSYGIS | VIFSDGRRTFYGDSVK | GRAAGTFDS = nd (0 of 3 replicates)
* GFTLNSYFIS | VIESDGRRTFYGESVK | GRAAGTFDS = nd (0 of 3 replicates)
* GFTLNSYGIP | VIGSDGRRTFYGDSVT | GRAAGTFDS = nd (0 of 3 replicates)
* GFTLNSYGIS | VITSDGRRTFYTDSVK | GRAAGTFDS = 800 µM (2 of 3 replicates)
* GFTLNSYGIS | VIRSDGRRTFYGDSCC | GRAAGTFDS = nd (0 of 3 replicates)
* WPTLNSYGIS | VINSDGRRTFYGDSVK | GRAAGTFDS = nd (0 of 3 replicates)
* GFTLNSYGQS | VIVSDGRRTFYGDSVK | GRAAGTFGS = nd (0 of 3 replicates)

From the AlphaSeq antibody data of Engelhart et al. 2022 (doi:10.1038/s41597-022-01779-4), copy in the FLAb collection.